Where “and” joins values, the source holds several entries; their conditions need not be identical. Identical values can stand only once.
Target: T1, κ opioid receptor (Cavia porcellus, UniProt P41144)
T1 construct: determined in guinea pig brain cells; from tissue; host or cells: guinea pig brain
Test: biochemical
Assay type: binding, guinea pig
Settings: Ki [3H] U69,593 (κ)

Sequences of proteins named here, by UniProt entry; tags and fusion partners are left off. A change or cut given only in a name is not applied to a line headed by its entry.
UniProt P41144: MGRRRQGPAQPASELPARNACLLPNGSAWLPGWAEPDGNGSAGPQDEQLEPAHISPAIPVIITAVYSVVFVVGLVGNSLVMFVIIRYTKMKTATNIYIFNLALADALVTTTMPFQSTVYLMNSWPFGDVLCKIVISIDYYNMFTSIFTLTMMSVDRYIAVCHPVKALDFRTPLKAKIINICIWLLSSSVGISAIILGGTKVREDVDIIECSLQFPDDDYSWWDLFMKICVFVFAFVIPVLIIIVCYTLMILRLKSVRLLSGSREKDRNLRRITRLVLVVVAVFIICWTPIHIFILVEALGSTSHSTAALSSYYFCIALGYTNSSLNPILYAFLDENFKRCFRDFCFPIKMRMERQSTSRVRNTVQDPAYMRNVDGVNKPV

Compound	Ki
C[C@H]1C2Cc3ccc(C(N)=O)cc3[C@@]1(C)CCN2CC1CC1 (racemic) [Example 4, (±)-3-(Cyclopropylmethyl)-1,2,3,4,5,6-hexahydro-cis-6,11-dimethyl-2,6-methano-3-benzazocin-8-carboxamide]	530 pM and 600 pM and 420 pM
CC1C2Cc3ccc(C(N)=O)cc3C1(C)CCN2CC1CC1 (single isomer, unassigned) [Example 4b]	67000 ± 1600 pM

Reference: patent publication US9932349B2 (priority 2000, dated 2018)
